Experimental data taken from article PMC3057987 (PLoS ONE, 2011).

The chains behind the UniProt entries cited, without tags or fusion partners. Residues count along the entry.
UniProt Q00987, 1-294: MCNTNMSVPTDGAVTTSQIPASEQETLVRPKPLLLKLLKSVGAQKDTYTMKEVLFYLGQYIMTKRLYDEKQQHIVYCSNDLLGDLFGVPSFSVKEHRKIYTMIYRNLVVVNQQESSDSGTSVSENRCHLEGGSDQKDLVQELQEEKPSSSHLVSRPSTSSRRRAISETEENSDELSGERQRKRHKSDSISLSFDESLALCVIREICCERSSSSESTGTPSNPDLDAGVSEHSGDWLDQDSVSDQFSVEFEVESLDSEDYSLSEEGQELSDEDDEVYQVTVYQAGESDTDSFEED

Target: T1, MDM2 (Homo sapiens, UniProt Q00987)
T1 construct: The cDNA of MDM2 (7–300 amino acids) was amplified by PCR; made in house; host or cells: wheat germ cell-free translation system (Promega)
Test: In vitro binding (pull-down) assay of GFP-fused peptides with MDM2 immobilized on IgG beads
Conditions: GFP-fused peptide, fluorescence after SDS-PAGE
Method: To examine the ability of the peptides to bind to MDM2, we constructed plasmids for the expression of GFP-fused peptides and performed pull-down assays between the GFP-fused peptides and MDM2 (Fig. S1). […] As previously reported, inhibition of the MDM2-p53 interaction leads to activation of the p53 pathway, [13], [14].
The GFP-tagged peptide was incubated with MDM2 immobilized on IgG beads for 1 h at 4°C. The beads were washed three times with IPP150, followed by vortexing to elute the bound molecules. The resulting eluate was loaded on a 10% SDS-PAGE gel, and the fluorescence of the GFP tag was detected with a Molecular-Imager FX (BioRad, Richmond, CA, USA).

binding to MDM2 immobilized on beads: not
Substance: GFP-p53_13–28: GFP-fused wild-type p53 13–28 peptide (PLSQETFSDLWKLLPE; left off: GFP, end not stated, kept) [reference compound]
